Patent US11535597B2, “Photoreactive ligands and uses thereof” (The Scripps Research Institute, priority 2017, dated 2022)
pIC50: −log10 of the molar value.

By UniProt entry, the sequences of proteins in these tests, tags left out. Residues count along the entry.
UniProt O43772, whole entry: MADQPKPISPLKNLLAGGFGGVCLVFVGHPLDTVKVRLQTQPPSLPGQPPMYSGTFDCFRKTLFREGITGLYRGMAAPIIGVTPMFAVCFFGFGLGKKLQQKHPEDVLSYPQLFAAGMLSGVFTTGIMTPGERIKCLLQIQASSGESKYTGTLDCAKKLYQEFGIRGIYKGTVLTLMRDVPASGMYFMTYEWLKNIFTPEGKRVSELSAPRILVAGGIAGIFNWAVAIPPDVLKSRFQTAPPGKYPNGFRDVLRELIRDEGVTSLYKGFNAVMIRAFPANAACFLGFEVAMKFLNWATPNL
UniProt P37231, 238-503 limits assumed: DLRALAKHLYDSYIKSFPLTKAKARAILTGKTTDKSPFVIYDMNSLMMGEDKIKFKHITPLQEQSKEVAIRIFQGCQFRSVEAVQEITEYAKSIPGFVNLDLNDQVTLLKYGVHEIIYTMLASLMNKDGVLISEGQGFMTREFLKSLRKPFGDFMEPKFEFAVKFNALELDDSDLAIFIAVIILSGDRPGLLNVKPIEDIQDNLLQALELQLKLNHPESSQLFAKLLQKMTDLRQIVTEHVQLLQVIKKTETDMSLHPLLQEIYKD
UniProt Q8N4Q0, whole entry: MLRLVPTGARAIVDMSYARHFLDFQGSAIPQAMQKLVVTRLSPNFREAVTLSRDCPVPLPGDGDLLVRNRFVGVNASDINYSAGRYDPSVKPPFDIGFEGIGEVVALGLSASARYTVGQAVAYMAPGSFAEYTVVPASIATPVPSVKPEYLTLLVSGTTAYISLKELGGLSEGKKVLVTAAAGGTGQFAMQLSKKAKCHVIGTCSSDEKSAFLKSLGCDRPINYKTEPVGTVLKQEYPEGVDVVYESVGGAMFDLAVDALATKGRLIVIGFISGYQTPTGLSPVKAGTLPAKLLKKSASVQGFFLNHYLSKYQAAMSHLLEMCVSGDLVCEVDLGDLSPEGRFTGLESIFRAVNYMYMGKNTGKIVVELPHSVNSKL
UniProt Q8N8N7, whole entry: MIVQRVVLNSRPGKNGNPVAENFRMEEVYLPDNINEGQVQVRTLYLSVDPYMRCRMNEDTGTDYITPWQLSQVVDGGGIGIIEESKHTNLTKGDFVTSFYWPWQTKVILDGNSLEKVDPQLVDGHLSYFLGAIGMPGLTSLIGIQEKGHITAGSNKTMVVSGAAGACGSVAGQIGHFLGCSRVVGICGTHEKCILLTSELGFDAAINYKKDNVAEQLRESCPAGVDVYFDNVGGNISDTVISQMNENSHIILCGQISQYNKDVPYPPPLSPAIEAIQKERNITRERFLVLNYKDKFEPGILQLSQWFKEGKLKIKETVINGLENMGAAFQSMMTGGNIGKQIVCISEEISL

Tests used:
[1] = biological target: T1, SLC25A20 (Homo sapiens, UniProt O43772); assay: Gel-based competitor blockade of FFF 3 labeling of recombinantly expressed SLC25A20 in HEK293T cells
[2] = system: HSC-5 cells; assay: LCMS analysis of acylcarnitines in HSC-5 cells; settings: HSC5 cells
[3] = biological target: T1, SLC25A20; assay: MS-based (SILAC) competition of FFF probe 3 labeling of SLC25A20 in cells; settings: 20-50 μM
[4] = system: HSC5 cells; assay: Oxygen consumption rate measurements (palmitate-BSA oxidation, Seahorse)
[5] = biological target: PPARγ (Homo sapiens, UniProt P37231); assay: GAL4-PPARγ luciferase reporter assay with empty control vector in HEK293T cells; settings: GAL4-PPARγ luciferase reporter and empty control vector
[6] = biological target: ZADH2 (Homo sapiens, UniProt Q8N4Q0); assay: MS-based (SILAC) competition of FFF probe 8 labeling of ZADH2 in HEK293T cells; settings: competition with FFF probe 8 (20 μM)
[7] = biological target: T2, PTGR2 (Homo sapiens, UniProt Q8N8N7); assay: Gel-based competitor blockade of FFF 8 labeling of recombinantly expressed FLAG-tagged PTGR2 in HEK293T cells
[8] = biological target: T2, PTGR2; assay: MS-based (SILAC) competition of FFF probe 8 labeling of endogenous PTGR2 in HEK293T cells; settings: FFF probe 8 20 μM, 8× competitor
[9] = biological target: T2, PTGR2; assay: In vitro LCMS-based activity assay for PTGR2 (15-keto-PGE2 reductase activity)

| SMILES | competitor blockade of FFF 3 labeling of recombinant SLC25A20 (gel) ([1]; HEK293T cells) | pIC50 ([1]; read-out: IC50 for blockade of FFF probe 3 labeling of SLC25A20, recombinant SLC25A20 in HEK293T cells, probe 3 20 μM) | short- or medium-chain acylcarnitines (<C16) [2] | long-chain (C16, C18, C18:1) acylcarnitines ([2]; 21 0.2-100 μM, 3 h, 24 100 μM) | blockade of probe 3 labeling of SLC25A20 in cells by quantitative MS-based proteomics [3] | capacity to oxidize palmitate (exogenous fatty acid oxidation) ([4]; HSC5 cells) | basal and maximal respiration (oxygen consumption rate) ([4]; HSC5 cells pre-treated for 40 min, then exogenous palmitate) | direct modulation of PPARγ transcriptional activity [5] | cross-reactivity with ZADH2 [6] | competitor blockade of FFF 8 labeling of recombinant PTGR2 (gel) [7] | PTGR2 as competed target in competitive profiling [8] | effect on 15-keto-PGE2 reductase (catalytic) activity of recombinant PTGR2 [9] | pIC50 ([9]; read-out: IC50 for inhibition of PTGR2-mediated reduction of 15-keto-PGE2 (15-keto-PGE2 reductase activity), recombinant PTGR2) |
| --- | --- | --- | --- | --- | --- | --- | --- | --- | --- | --- | --- | --- | --- |
| Cc1ccc2c(CN3CCCC3CN(C)c3ccccc3)cc(=O)oc2c1 (stereo not shown) | preferential binding | 5.00 | No changes | strong, concentration-dependent increase | substantially blocked | impaired capacity to oxidize palmitate | concentration-dependent inhibition | – | – | – | – | – | – |
| COc1ccccc1C1CCN(C(=O)CN2CCCCC2=O)CC1 | – | – | – | – | – | – | – | do not directly induce | principal off-target | preferential binding | top competed targets | inhibited | 4.10 |
